9 compounds from patent publication US10807988B2, “3-((hetero-)aryl)-8-amino-2-oxo-1,3-diaza-spiro-[4.5]-decane derivatives” (dated 2020) can be followed below.

Chains of the proteins cited; added tags and fusions are not shown. Lines headed by an entry give the natural chain unless they say otherwise; changes in a name come on top.
UniProt P35372, whole entry, looked up: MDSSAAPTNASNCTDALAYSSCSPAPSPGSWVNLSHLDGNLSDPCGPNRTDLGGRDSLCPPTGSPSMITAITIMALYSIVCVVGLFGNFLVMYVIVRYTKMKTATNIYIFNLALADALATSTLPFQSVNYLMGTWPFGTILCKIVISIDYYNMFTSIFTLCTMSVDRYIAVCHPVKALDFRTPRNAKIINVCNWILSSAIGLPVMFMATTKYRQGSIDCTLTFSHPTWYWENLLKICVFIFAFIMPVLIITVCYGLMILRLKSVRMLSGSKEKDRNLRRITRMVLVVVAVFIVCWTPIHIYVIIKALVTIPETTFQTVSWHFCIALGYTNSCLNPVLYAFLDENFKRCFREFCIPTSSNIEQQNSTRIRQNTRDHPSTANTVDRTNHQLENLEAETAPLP
UniProt P41146: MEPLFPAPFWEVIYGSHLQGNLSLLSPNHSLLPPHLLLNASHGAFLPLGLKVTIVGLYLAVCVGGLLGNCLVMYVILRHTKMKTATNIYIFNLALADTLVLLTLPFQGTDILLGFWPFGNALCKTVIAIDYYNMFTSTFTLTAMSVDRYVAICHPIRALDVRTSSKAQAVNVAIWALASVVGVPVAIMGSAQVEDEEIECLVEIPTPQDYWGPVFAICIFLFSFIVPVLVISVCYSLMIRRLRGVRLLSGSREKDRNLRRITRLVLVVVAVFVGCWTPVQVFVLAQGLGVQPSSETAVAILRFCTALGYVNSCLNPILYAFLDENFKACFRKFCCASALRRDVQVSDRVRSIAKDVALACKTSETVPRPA

In one assay the target is human mu-opioid peptide (hMOP) receptor (Homo sapiens (Human), UniProt P35372). The experiment in a line: Human mu-opioid peptide (hMOP) receptor binding assay (SPA, [3H]naloxone displacement). Particulars: at 1 μM.
With `Cn1nc(C(F)(F)F)cc1N1C[C@]2(CC[C@](c3cccc(F)c3)(N(C)C)CC2)NC1=O`, the “hMOP % inhibition at 1 μM” value is reported as 15%. Same read-out and setting: in the case of `CN(CC1CC1)[C@]1(c2ccccc2)CC[C@]2(CC1)CN(c1cnc(C(F)(F)F)nc1)C(=O)N2` it was 6%; in that of `CN(C)[C@]1(c2ccccc2)CC[C@]2(CC1)CN(c1cnc(-c3ccc(C(N)=O)cc3)nc1)C(=O)N2`, 23%; in that of `CN(C)[C@]1(c2ccccc2)CC[C@]2(CC1)CN(c1cnc(NC(=O)C3CC3)nc1)C(=O)N2`, 17%. On to `CN(C)[C@]1(c2ccccc2)CC[C@]2(CC1)CN(c1cnc(-c3ccccc3C#N)nc1)C(=O)N2`, for which the “hMOP % inhibition at 1 μM” value is 25%.

Staying with this assay, now noted: read-out: hMOP Ki.
As to `CN(C)[C@]1(c2ccccc2)CC[C@]2(CC1)CN(c1ccc(S(C)(=O)=O)cc1)C(=O)N2CC1CC1`, the inhibition constant (Ki) amounted to 97 nM.

A further assay has as its target human nociceptin/orphanin FQ peptide (hNOP) receptor (Homo sapiens (Human), UniProt P41146).
Assay: not given
The following applies: read-out: hNOP Ki.
Turning to `CN(C)[C@]1(c2ccccc2)CC[C@]2(CC1)CN(c1cnc(N3CCN(S(C)(=O)=O)CC3)nc1)C(=O)N2`, the Ki was 13 nM.

Consider `CN(C)[C@]1(c2ccccc2)CC[C@]2(CC1)CN(c1cnc(C#N)nc1)C(=O)N2CCO`, for which the inhibitory constant (Ki) came to 237 nM.

With `CN(C)[C@]1(c2ccccc2)CC[C@]2(CC1)CN(c1cnc(-c3cccc(C#N)c3)nc1)C(=O)N2`, the inhibition constant Ki was found to be 6 nM. On the same count and under the same terms, as for `CN(C)[C@]1(c2ccccc2)CC[C@]2(CC1)CN(c1ccc(S(C)(=O)=O)cc1)C(=O)N2CC1CC1`, the figure is 2 nM.

For orientation: Ki means the equilibrium dissociation constant of an inhibitor or competing ligand from its target.
